Experimental findings from paper PMC3344910 (Bioorganic & medicinal chemistry, 2012) are described below.

By UniProt entry, the sequences of proteins in these tests, tags left out.
UniProt P41143, whole entry: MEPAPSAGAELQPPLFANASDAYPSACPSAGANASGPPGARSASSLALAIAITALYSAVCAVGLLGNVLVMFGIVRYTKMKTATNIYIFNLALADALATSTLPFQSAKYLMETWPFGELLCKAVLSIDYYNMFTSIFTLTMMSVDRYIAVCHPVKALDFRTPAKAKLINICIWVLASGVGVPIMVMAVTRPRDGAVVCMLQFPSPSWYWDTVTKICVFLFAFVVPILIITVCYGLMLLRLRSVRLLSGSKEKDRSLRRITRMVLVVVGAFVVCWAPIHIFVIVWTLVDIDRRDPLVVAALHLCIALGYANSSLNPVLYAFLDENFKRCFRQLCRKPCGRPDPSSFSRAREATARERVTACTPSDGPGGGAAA
UniProt P35372, whole entry: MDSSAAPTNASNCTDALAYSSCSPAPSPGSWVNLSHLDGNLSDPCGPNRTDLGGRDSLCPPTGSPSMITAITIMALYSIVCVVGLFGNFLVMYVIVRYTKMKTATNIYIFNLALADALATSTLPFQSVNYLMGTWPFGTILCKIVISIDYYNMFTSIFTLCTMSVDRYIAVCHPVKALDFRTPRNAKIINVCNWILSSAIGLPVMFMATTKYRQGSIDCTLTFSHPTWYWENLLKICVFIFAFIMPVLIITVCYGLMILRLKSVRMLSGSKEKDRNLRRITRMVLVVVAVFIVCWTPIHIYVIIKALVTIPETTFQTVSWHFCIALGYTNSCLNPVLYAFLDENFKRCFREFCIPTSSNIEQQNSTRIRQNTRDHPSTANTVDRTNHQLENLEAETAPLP

Assay [1] deals with human DOP receptor (Homo sapiens, UniProt P41143). It counts as binding. To be noted: read-out: DOP Ki ± SD.
Assay [2] deals with human MOP receptor (Homo sapiens, UniProt P35372). It counts as binding. To be noted: read-out: MOP Ki ± SD.

Each structure is given as a SMILES string.

`COC(=O)[C@@H]1C[C@H](OC(C)=O)C(=O)[C@H]2[C@@]1(C)CC[C@H]1C(=O)O[C@H](c3ccoc3)C[C@]21C` [Compound 1, (2S,4aR,6aR,7R,9S,10aS,10bR)-methyl 9-acetoxy-2-(furan-3-yl)-6a,10b-dimethyl-4,10-dioxo-dodecahydro-1H-benzo[f]iso-chromene-7-carboxylate, reference compound]: the inhibition constant (Ki) in assay [1] was more than 10 µM.

Consider `COC(=O)[C@@H]1C[C@H](OC(C)=O)C(=O)[C@H]2[C@@]1(C)CC[C@H]1C(=O)O[C@@H](c3ccoc3)C[C@]21C` [Compound 3, (2R,4aR,6aR,7R,9S,10aS,10bR)-methyl 9-acetoxy-2-(furan-3-yl)-6a,10b-dimethyl-4,10-dioxododecahydro-1H-benzo[f]isochromene-7-carboxylate], for which the Ki in assay [2] and in assay [1] was more than 10 µM throughout.

By Ki is commonly meant the dissociation constant of the complex between target and ligand, obtained from inhibition or displacement.
